Laboratory results from patent US6403329B1, “Methods of detecting methylphosphonic compounds” (dated 2002).

Test system: cholinesterase
Assay: Micro spot test using 1,3-dicyclohexylcarbodiimide with M-272 detector ticket test for cholinesterase inhibitors
Conditions: M-272 enzyme disc; control (analyte level=0) contains a white spot

C(=NC1CCCCC1)=NC1CCCCC1
Cholinesterase inhibition (in words): weak cholinesterase inhibitor
